# Patent US20240293405A1, “(1H-PYRROLO[2,3-B]PYRIDIN-1-YL)PYRIMIDIN-2-YL-AMINO-PHENYL-ACRYLAMIDE INHIBITORS OF EGFR FOR USE IN THE TREATMENT OF BRAIN TUMORS” (Dana-Farber Cancer Institute, Inc., priority 2021, published 2024)
# Where two headings read alike, the source gives them in different places.
# What was measured:
# [1] = Brain and plasma exposure after single oral dose; format: in vivo, Sprague Dawley rats; conditions: own data, oral dosing in rats
# Protocol: Compound 1 and gefitinib were administered to Sprague Dawley rats in a single oral (PO) dose (30 mg/kg or 50 mg/kg, respectively).
# [2] = 3 mg/kg IV infusion over 5 h, individual animal, Compound 2 as metabolite in Compound 1-dosed rats
# [3] = Brain and plasma exposure after single oral dose; format: in vivo, Sprague Dawley rats; conditions: gefitinib 50 mg/kg PO, 7 hr, individual animal
# [4] = Kim et al., Drug Metab. Dispos. 2019; cited from earlier work
smiles,measurement,setting,value
"COc1cc2ncnc(Nc3ccc(F)c(Cl)c3)c2cc1OCCCN1CCOCC1 [Gefitinib, reference compound]",Brain Penetration (% of B/P ratio in preclinical model),[1],22%
same,Plasma Concentration,[2]; 3 h,225 ng/mL
same,Brain/Plasma (ratios),[2]; 5 h,0.528
same,Brain/Plasma (ratios),[3],0.546
same,Brain Penetration (% of B/P ratio in preclinical model),[4],27%
